Data on 12 molecules can be found in PubChem BioAssay (EPA / NIEHS).

The list shows a part of the results, in another mix than the full data. Active and inactive are the calls of the source. The calls were made as follows: active = hit-call score of the fitted dose curve at least 0.9, where 1 is the maximum; inactive = score below 0.9.

This assay can be described thus: ATG_GLI_CIS: Attagene CIS-FACTORIAL HepG2 Assay for human Zinc Finger Protein GLI1 (AID 2282945). The settings on record: HepG2, Attagene cis-factorial reporter mRNA, GLI element; actives raise or lower the signal. How it is done: ATG_CIS is a cell-based, multiplexed-readout assay that uses HepG2, a human liver cell line, with measurements taken at 24 hours after chemical dosing in a 24-well plate.ATG_GLI_CIS is one of 52 assay component(s) measured or calculated from the ATG_CIS assay. It is designed to make measurements of mRNA induction, a form of inducible reporter, as detected with fluorescence intensity signals by Reverse transcription polymerase chain reaction (RT-PCR) and Capillary electrophoresis technology.Data from the assay component ATG_GLI_CIS was analyzed into 1 assay endpoint. This assay endpoint, ATG_GLI_CIS, was analyzed with bidirectional fitting relative to DMSO as the negative control and baseline of activity. Using a type of inducible reporter, measures of mRNA for gain or loss-of-signal activity can be used to understand the reporter gene at the transcription factor-level as they relate to the gene GLI1. Furthermore, this assay endpoint can be referred to as a primary readout, because this assay has produced multiple assay endpoints where this one serves a reporter gene function. To generalize the intended target to other relatable targets, this assay endpoint is annotated to the dna binding intended target family, where the subfamily is zinc finger.
Human liver HepG2 cells are transiently transfected with multiple reporter transcription units (MRTUs) in 6-well plates using FuGene 6 reagent (Roche; 3 ml FuGene/1 mg DNA). The MRTU constructs are regulated by a cis-regulating element (promoter). […] A major difference between the CIS and TRANS system is that in CIS activities of endogenous TFs are measured, whereas the TRANS assay evaluates changes in activities of exogenous, chimeric NR-Gal4 proteins. […] At the end of 24 hour incubation, total RNA was isolated using TriZol reagent (Invitrogen). The isolated RNA is then reverse-transcribed using oligo(dT) primer and Mo-MLV reverse transcriptase (Invitrogen) with DNAse I (Ambion) treatment for 30 min. The one-tenth of the produced cDNA was amplified by PCR using Taq DNA polymerase (Invitrogen) and two reporter sequence-specific primers. The PCR products were fluorescently labeled by primer extension with 6-arboxyfluorescein (6-FAM) 5'-labeled reporter sequence-specific primer (2 min at 95 C, 20 s at 68 C and 10 min at 72 C) and these products were digested with 5U of HpaI (New England Biolabs) for 2h at 37 C. The fragments were purified using Qiaquick PCR columns (Qiagen), analyzed on an ABI 3130xL genetic analyzer (Applied Biosystems) with peak positions identified by using a set of X-rhodamine (ROX)-labeled MapMarker1000 molecular weight standards (BioVentures). The raw capillary electrophoresis data was processed using Attagraph software (Attagene).
Consider `Cc1ccc([N+](=O)[O-])c([N+](=O)[O-])c1`, for which the outcome was inactive. The same measure for `Cc1cccc([N+](=O)[O-])c1[N+](=O)[O-]`: “inactive”; for `COc1ccc([N+](=O)[O-])cc1[N+](=O)[O-]`: “inactive”; for `CC(C)OP(C)(=O)OC(C)C`: “inactive”. The same measure for `O=[N+]([O-])OCC(CO[N+](=O)[O-])(CO[N+](=O)[O-])CO[N+](=O)[O-]`: “inactive”. The same measure for `O=[N+]([O-])c1cccc([N+](=O)[O-])c1`: “inactive”. Take `Cc1ccc([N+](=O)[O-])cc1[N+](=O)[O-]`: the call was inactive. Turning to `CN(C)CCCl`, the outcome was inactive. As for `COP(C)(=O)OC`, the outcome was inactive. Then `N#CBr`, with “inactive”; and `CC(C)N(CCO)C(C)C`, with “inactive”. Then `Cc1c([N+](=O)[O-])cccc1[N+](=O)[O-]`, with “inactive”.
